Test results taken from patent publication US4710564A, “Anthracycline compounds” (Microbial Chemistry Research Foundation, priority 1985, dated 1987).

What was measured:
P388 leukemia = assay: Antitumor activity against P388 leukemia in mice, i.p. administration (T/C, therapeutic index); type: in vivo, CDF1 mice; conditions: maximum tolerated dose/dose for 130% T/C
[1] = tested on: Adriamycin-resistant P 388 leukemia cells (P 388/ADR); assay: Cytotoxic activity against Adriamycin-resistant P 388 leukemia cells; type: cell-based; conditions: for IC50 P388/ADR: Adriamycin-resistant P388 cells, cell number on day 2; for R/S: IC50 P388/ADR over IC50 P388/S, 2880 min
P 388 leukemia [2] = conditions: i.v.; maximum tolerated dose/dose for 130% T/C
P 388 leukemia [3] = conditions: oral; maximum tolerated dose/dose for 130% T/C

Q: Which results are given for `CCC1(O)Cc2c(O)c3c(c(O)c2C(OC2CC(N4CCOCC4)C(O)C(C)O2)C1)C(=O)c1c(O)cccc1C3=O` (stereo not shown) [3'-deamino-3'-(4-morpholinyl)-R20X]?
A: Therapeutic index (P388 leukemia): 10.7; IC50 P388/ADR [1]: 0.038 mg/L (≈ 0.0667 µM); R/S [1]: 1.15; Therapeutic index (P 388 leukemia [2]): 1.6; Therapeutic index (P 388 leukemia [3]): 11

Q: How did the Therapeutic index (P388 leukemia) turn out when `CCC1(O)Cc2cc3c(c(O)c2C(OC2CC(N4CCOCC4)C(O)C(C)O2)C1)C(=O)c1c(O)cccc1C3=O` (stereo not shown) [3'-deamino-3'-(4-morpholinyl)-R20Y5] was run?
A: Its Therapeutic index is 5.2.

Q: What about the “IC50 P388/ADR” value [1] of the same compound?
A: Its value is 0.15 mg/L (≈ 0.271 µM).

Q: And the R/S [1]?
A: The R/S was 1.5.

Q: What about the Therapeutic index (P 388 leukemia [2]) of the same compound?
A: The Therapeutic index was 6.5.

Q: And the Therapeutic index (P 388 leukemia [3])?
A: Its Therapeutic index is 7.4.

≈ marks a conversion by molar mass, not a printed value. Where two headings read alike, the source gives them in different places.
